# Yeast mating assay 1: variants of the scFv Ab-14

Antigen: PDVDLGDISGINAS, a 14-residue peptide of the SARS-CoV-2 spike HR2 region.

The variants keep the heavy chain, the linker and the frameworks of Ab-14 (scFv order VH, a 15-residue (Gly4Ser)3 linker, VL).
VH: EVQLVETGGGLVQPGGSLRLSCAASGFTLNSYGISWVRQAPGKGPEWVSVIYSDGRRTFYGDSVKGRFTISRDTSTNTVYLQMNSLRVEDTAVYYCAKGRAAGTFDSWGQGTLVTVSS
VL: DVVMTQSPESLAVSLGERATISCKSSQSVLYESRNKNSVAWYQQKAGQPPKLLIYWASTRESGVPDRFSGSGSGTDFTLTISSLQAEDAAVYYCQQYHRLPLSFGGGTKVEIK

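Library AAYL50 holds single substitutions and randomly drawn double and triple substitutions in the CDRs. The assay is AlphaSeq: two haploid yeast populations carry antibody and antigen on their surface. Binding brings cells together so that they mate, and sequencing counts the barcode pairs among the diploids. Scores were corrected for input abundance and mapped to Kd with protein pairs of known affinity run in the same pool. Each pool was mated in three replicate cultures.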

Substitutions are numbered in sequence along the VL above, starting at 1 (not Kabat). This list gathers variants with a substitution at T59 (VL, numbered from residue 1). Each Kd is an estimate from the mating assay, the geometric mean of the replicates in which the pair was seen; lower is stronger. "no signal" marks a missing value. The strain was present, yet no cells mated with the target were sequenced in any replicate, which points to weak or no binding. In this assay the parent's reference entry averaged 4.4 nM; its copy inside this library read 48 nM.

For T59M E61W P101C, the assay gave no signal (0 of 3 replicates). With R34F T59L S103N the result was 19 nM (3 of 3 replicates). For N37S T59V Q96T, the assay gave 520 nM (3 of 3 replicates). With T59Y R60P the result was 6.1 µM (3 of 3 replicates). With L30C T59S the result was 25 nM (3 of 3 replicates). Variant A40G T59G S62C gave no signal (0 of 3 replicates). Variant V29F V39W T59K showed 7.3 µM (2 of 3 replicates). Variant K24F T59R Q96P gave no signal (0 of 3 replicates).

Variant V29S T59F showed 14 nM (3 of 3 replicates). Variant T59C R60A Q95M showed 3.4 µM (1 of 3 replicates). Variant V29N T59Y R60W showed 970 nM (1 of 3 replicates). Variant S25H N35H T59Q showed 570 nM (3 of 3 replicates). With T59P S62A Y97Q the result was 11 µM (1 of 3 replicates). Variant T59K E61D P101C gave 58 nM (3 of 3 replicates). Variant Y31Q T59L P101N showed 2.0 µM (3 of 3 replicates). Variant S33H T59S showed 4.8 µM (2 of 3 replicates).

Variant Q27D T59N H98N showed 37 nM (3 of 3 replicates). Variant S33E T59G S103W gave 1.3 µM (3 of 3 replicates). Variant T59N S103R gave 3.0 µM (2 of 3 replicates). Variant V39Q T59W S103G gave 6.2 µM (1 of 3 replicates). Variant N37Q T59S Q96T showed 7.1 µM (1 of 3 replicates). For N35Q T59H Q95W, the assay gave 310 nM (3 of 3 replicates). Variant N37M T59G L102T showed no signal (0 of 3 replicates). With S28Y R34T T59A the result was 41 µM (1 of 3 replicates).

With S58I T59N the result was no signal (0 of 3 replicates). For T59Q E61L Q96P, the assay gave 9.5 nM (3 of 3 replicates). Variant Y31K T59S S103H gave no signal (0 of 3 replicates). For A57G T59F, the assay gave 17 nM (3 of 3 replicates). For T59A Y97L, the assay gave 53 µM (1 of 3 replicates). With R34E W56F T59N the result was 7.3 nM (3 of 3 replicates).

Background: pairings of library AAYL50 with three empty control strains gave a value in 18% of cases (median 15 µM, 5th percentile 970 nM). Values in that range, when seen in few replicates, are hard to tell from nonspecific mating.

Data: MIT Lincoln Laboratory AlphaSeq set, Engelhart et al. 2022, doi:10.1038/s41597-022-01779-4, as distributed in FLAb.